Bioassay records from PubChem.
miR-21 reporter: raises the signal of a miR-21 reporter; HeLa miR-21 FLuc reporter, luciferase, 48 h; Potency, µM (top dose mostly 38.3 µM), for inactives: at the highest dose reporter change, positive = more light; AID 2288; 340,000 tested, under 10 active; active = well fitted rising curve with a large enough effect; inconclusive = small, poorly fitted or top-dose-only effect; inactive = no such curve, though single readings can be large or run the other way;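 note: % of control where 0% means no effect; miR-21 action dims this reporter so a rising signal means less miR-21 action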
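HeLa miR-21-FLuc reporter line, endogenous miR-21; 2000 cells/well in DMEM/10% FBS; compound titration up to ~40uM final, 48 h, 37 degree Celsius; luciferase detection reagent, 15 min lysis, CCD luminescence.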
ClpP mod: qHTS Assay for Activators of ClpP. ATP-dependent Clp protease proteolytic subunit (Bacillus subtilis (strain 168)), P80244. purified B. subtilis ClpP, FRET peptide cleavage, 20 min. Potency, µM (series often up to 57.5 µM), inactives show at the top dose activity change, negative = active. 1.9% of 340,000 active; active = well fitted falling curve with a large enough effect; inconclusive = small, poorly fitted or top-dose-only effect; inactive = no such curve, though single readings can be large or run the other way; also: potency is read from the fitted curve at half-maximal effect; the source files actives as falling curves though it sought activators and does not explain the sign; nearly all actives have a fitted effect of over 65% in size
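FRET quenching reversal measured ClpP activation: 10 microg/mL B. subtilis ClpP at pH 8 with the FRET-FV decapeptide, read at 430 nm after 320 nm excitation. The 20-min minus 0-min signal was scaled between DMSO/no-enzyme wells and ADEP (5.8 microM final).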
Nrf2 block: Nrf2 pathway inhibition | 2.1% of 360,000 active | A549 ARE-Fluc reporter, luciferase luminescence, 18-24 h | Potency, µM (titrated, usually from 46 µM), inactives show top-dose activity change, negative = inhibition, actives largely listed as inhibitors; also: potency is read from the fitted curve at half-maximal effect; % is scaled to controls: 0 for no effect and ±100 for the full control effect; nearly all actives have a fitted effect of over 60% in size
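Concentration-response testing used A549 ARE_Fluc cells at 5000 cells/well. Following an 18-24 h compound incubation, viability was read by fluorescence (Ex 405/Em 525) and luciferase output by luminescence.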
TCR act: activates T cell receptor signaling; primary human leukocytes, anti-CD3, IL-2 HTRF, 48 h; Potency, µM (top dose mostly 9.22 µM), for inactives: at the highest dose activation of IL-2 secretion, hits mostly activators; 330,000 tested, under 10 active; also: % of control where 0% means no effect
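Activity was scored as IL-2 release from primary human leukocytes given only a TCR signal (a-CD3 beads) plus compound for 48 hr. Detection used a two-antibody HTRF format read at 665nm.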
Nrf2 activator: Nrf2 pathway activation; AID 624171; 0.31% of 410,000 active; AREc32 ARE-luciferase reporter (MCF7-derived line), luminescence, 24 h; Potency, µM (top dose mostly 46.1 µM), for inactives: at the top dose activation, most hits filed as activators; also: potency is read from the fitted curve at half-maximal effect; % of control where 0% means no effect; nearly all actives have a fitted effect of over 65% in size
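Luminescent ARE reporter assay in AREc32_Fluc cells: overnight plating at 37 deg C, 24 hr compound incubation, Steady-Glo added, 30 min RT before reading.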
A549 viability: kills or reduces viability of A549 cells in Nrf2 counter-screen; A549 ARE-Fluc cells, CellTiter-Fluor viability, 18-24 h; Potency, µM (titrated, usually from 46 µM), without a hit: at the highest dose activity change, negative = cytotoxicity, actives largely listed as inhibitors; 0.16% of 390,000 active; AID 504648; also: potency is read from the fitted curve at half-maximal effect; % is scaled to controls: 0 for no effect and ±100 for the full control effect
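A549 ARE-Fluc cells in 5% FBS OPTI-MEM, 5000 cells/well, rested 2 h then exposed to compounds in concentration-response for 18-24 h at 37 °C. Viability by CellTiter-Fluor fluorescence (Ex 405/Em 525) after 30 min; luciferase luminescence (BugLite, 15 min, RT) read afterwards.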
* marks the source's active call; other numbers are inactive results; [ ] = dose if it differs, or a comment. A selection: hits, their analogues and other compounds. The true share with any hit is near 3.7%. Unless noted, calls follow the shape of the dose curve; as a rule, active = well fitted curve in the direction sought with a large enough effect; inconclusive = small, poorly fitted or top-dose-only effect, or another doubt; inactive = no such curve, though single readings can be large; an effect the other way counts as inactive or inconclusive.

`Cc1ccc(/C=C/C(=O)c2ccccc(=O)c2O)cc1C` gave miR-21 reporter inconclusive, ClpP mod -0.9%, Nrf2 block 20.6µM*, TCR act 2.6%[46.1 µM], Nrf2 activator 16.5% and A549 viability inconclusive.
Screening O=C(/C=C/c1ccccc1)c1cc(Br)ccc(=O)c1O returned miR-21 reporter inconclusive, ClpP mod 2.4%, Nrf2 block 18.4µM*, TCR act -1.1%, Nrf2 activator inconclusive and A549 viability inconclusive.
COc1ccc(C=CC(=O)c2ccc(OC)c(OC)c2O)cc1OC was read as Nrf2 block -13.6%, TCR act -1.9%, Nrf2 activator 20.6% and A549 viability -0.6%.
For O=C(CCS(=O)(=O)c1cc(Br)cc2c1N(C(=O)C1CC1)CC2)N1CCN(c2ccccc2)CC1 the results were miR-21 reporter 3.7%, ClpP mod -3.2%, Nrf2 block 1.3%, Nrf2 activator -1.1% and A549 viability 3.4%.
Screening COc1ccccc1N1CCN(C(=O)CCn2nc(C)c(S(=O)(=O)N3CCCC3)c2C)CC1 returned miR-21 reporter 22.7%, ClpP mod 0.9%, Nrf2 activator 8.3% and A549 viability -0.3%.
`Clc1ccc(C2=NNC(=NCc3ccc4c(c3)OCO4)SC2)cc1` gave miR-21 reporter 27.5%, ClpP mod -2.0%, Nrf2 block 23.1µM*, TCR act -2.0%[46.1 µM], Nrf2 activator 7.4% and A549 viability inconclusive.
Oc1ccc(C2=NNC(=NCc3ccc4c(c3)OCO4)SC2)c(O)c1 was read as miR-21 reporter -17.4%, ClpP mod 1.1%, Nrf2 block 24.2%, TCR act 10.5%[46.1 µM], Nrf2 activator 3.1% and A549 viability -3.1%.
`CCOC(=O)C(NC(=O)c1ccccc1)C(C)(C)SCc1ccccc1` (centres undefined) gave ClpP mod 1.4%, Nrf2 block -5.8%, TCR act -6.6%, Nrf2 activator -0.5% and A549 viability -3.4%.
CC(=O)Nc1ccc(Oc2sc(C(=O)c3ccccc3)c(N)c2C#N)cc1 was read as miR-21 reporter 26.7%, ClpP mod 0.3%, TCR act -1.7%, Nrf2 activator 8.91µM* and A549 viability inconclusive.
O=C1CCCC2=C1C1(CCSCC1)N=C(Nc1nc3ccccc3o1)N2 was read as Nrf2 block -2.4% and A549 viability 8.2%.
`Cc1cc(C)n(-c2nc3ccccc3c(=O)n2OCC(=O)N(C)C)n1` gave miR-21 reporter -7.8%, ClpP mod 7.94µM*, TCR act -1.6%, Nrf2 activator 0.2% and A549 viability -0.5%.
Screening Cc1cc(CC(C)C)n(-c2nc3ccccc3c(=O)n2OCC(=O)N(C)C)n1 returned miR-21 reporter -69.1%, ClpP mod -2.8%, TCR act -2.7%, Nrf2 activator 5.0% and A549 viability -0.2%.
For O=c1c2oc3ccccc3c2n(Cc2ccccc2Cl)c(=O)n1Cc1ccc2c(c1)OCO2 the results were miR-21 reporter 0.2%, ClpP mod -1.4%, Nrf2 block 1.3%, Nrf2 activator -0.3% and A549 viability 8.0%.
`CCOc1ccccc1N=C1SC(CC(=O)Nc2ccc(OC)cc2OC)C(=O)N1CCC1=CCCCC1` (centres undefined) gave miR-21 reporter -1.8%, ClpP mod inconclusive, Nrf2 block -22.8%, TCR act -0.9%[46.1 µM], Nrf2 activator 0.0% and A549 viability 1.1%.
Screening O=C(CC1SC(=Nc2ccc(OC(F)F)cc2)N(CCC2=CCCCC2)C1=O)Nc1ccccc1F (centres undefined) returned miR-21 reporter -10.8%, ClpP mod 1.1%, Nrf2 block 20.6µM*, TCR act 1.8%[46.1 µM], Nrf2 activator 6.9% and A549 viability -17.4%.
CCCCCCn1c(N2CCN(c3ccccc3)CC2)nc2c1c(=O)[nH]c(=O)n2C was read as miR-21 reporter -2.0%, ClpP mod -2.6%, Nrf2 block 20.6µM*, TCR act 3.0%[46.1 µM], Nrf2 activator 1.9% and A549 viability inconclusive.
CCCCCCCCn1c(N2CCN(c3cccc(Cl)c3)CC2)nc2c1c(=O)[nH]c(=O)n2C was read as miR-21 reporter 6.0%, ClpP mod 0.3%, Nrf2 block -13.3%, TCR act 4.3%, Nrf2 activator 0.1% and A549 viability 12.4%.
For CCn1c(CNC(=O)c2ccccc2Br)nnc1SCC(=O)Nc1nncs1 the results were miR-21 reporter 1.9%, ClpP mod 14.1µM*, Nrf2 block 0.9%, TCR act -3.9%, Nrf2 activator 0.3% and A549 viability 1.6%.
For CCCN(CC(=O)Nc1ccccc1OC)C(=O)c1ccc2[nH]c3c(c2c1)CC(C)CC3 (centres undefined) the results were ClpP mod -8.0%, Nrf2 block 23.1µM*, TCR act 2.2%, Nrf2 activator 2.1% and A549 viability inconclusive.
CCN(CC(=O)Nc1ccccc1OC)C(=O)c1ccc2[nH]c3c(c2c1)CC(C)CC3 (centres undefined) was read as ClpP mod -11.6%, Nrf2 block inconclusive, TCR act 6.4%, Nrf2 activator 0.3% and A549 viability inconclusive.
Screening O=C(N/N=C/C(Br)=C\c1ccccc1)c1ccc2nc[nH]c2c1 returned miR-21 reporter -15.8%, ClpP mod inconclusive, Nrf2 block -11.5%, TCR act 0.9%[46.1 µM], Nrf2 activator 22.4µM* and A549 viability 13.0%.
`O=C(N/N=C/C(Br)=C/c1ccccc1)c1ccc([N+](=O)[O-])cc1` gave miR-21 reporter -1.6%, ClpP mod -2.1%, Nrf2 block 0.6%, TCR act -3.9%, Nrf2 activator 8.91µM* and A549 viability -2.0%.
CCCCN(CCC#N)c1ccc(/C=C/c2ccnc3ccccc23)cc1 was read as ClpP mod 0.9%.
O=c1[nH]c2cc3c(cc2cc1C(c1nnnn1CC1CCCO1)N1CCCC1)OCO3 (centres undefined) was read as miR-21 reporter -6.4%, ClpP mod 31.6µM*, Nrf2 block 0.1%, TCR act 4.8%, Nrf2 activator -0.4% and A549 viability -6.8%.
CC(C)(C)n1nnnc1C(c1cc2cc3c(cc2[nH]c1=O)OCO3)N1CCN(c2ccccc2)CC1 (centres undefined) was read as miR-21 reporter -2.8%, ClpP mod 22.4µM*, Nrf2 block 8.6%, TCR act 3.9%, Nrf2 activator 0.6% and A549 viability -7.0%.

3 entries picked at random from the list so far:
COc1ccc(C=CC(=O)c2ccc(OC)c(OC)c2O)cc1OC was read as Nrf2 block -13.6%, TCR act -1.9%, Nrf2 activator 20.6% and A549 viability -0.6%.
For O=C(CCS(=O)(=O)c1cc(Br)cc2c1N(C(=O)C1CC1)CC2)N1CCN(c2ccccc2)CC1 the results were miR-21 reporter 3.7%, ClpP mod -3.2%, Nrf2 block 1.3%, Nrf2 activator -1.1% and A549 viability 3.4%.
O=c1[nH]c2cc3c(cc2cc1C(c1nnnn1CC1CCCO1)N1CCCC1)OCO3 (centres undefined) was read as miR-21 reporter -6.4%, ClpP mod 31.6µM*, Nrf2 block 0.1%, TCR act 4.8%, Nrf2 activator -0.4% and A549 viability -6.8%.
